# PubChem BioAssay AID504707 (The Scripps Research Institute Molecular Screening Center, 2011)
# The entries are a selection whose mix differs from that of the whole data set. Activity calls are given as the source filed them.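 Rule for the calls: active = percent activation above the mean of all tested compounds plus 3 SD (cut at about 19% in these data); inactive = the rest.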
# Biological target: cAMP-dependent protein kinase type I-alpha regulatory subunit (Bos taurus) + cAMP-dependent protein kinase catalytic subunit beta (Mus musculus) (UniProt P00514+P68181)
# Experiment: compounds dissociating PKAc from R1A subunit – biochemical, fluorescence polarization, Cy5-IP20, bovine R1A, mouse PKAc, primary screen (AID 504707);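 note: higher means more PKAc released from R1A so a rise in polarization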
# Conditions: PKA-R1A dissociation, at 11.4 µM, hits give high values, scaled: DMSO 0%, 113 µM cGMP 100%
row,Compound,activation
1,CCC(=O)N(c1ccccc1)C1(COC)CCN(CCn2nnn(CC)c2=O)CC1,inactive: -3.66%
2,CCC(=O)N(c1ccccc1)C1(COC)CCN(CCc2cccs2)CC1,inactive: -0.9%
